Measured values reported in patent US8198335B2, “Cosmetic material” (Parahermosa Co., Ltd., priority 2009, dated 2012).

Experiment: Check for precipitation of crystal in 1:1 mixtures of oil solution and diethyl amino hydroxy benzoyl hexyl benzoate kept at 5° C.
Format: physicochemical
Set-up: key: X: Evaluation results accompanied by an x in Table 2 indicate that crystal had precipitated at the applicable point in time
Settings: 1:1 by mass with diethyl amino hydroxy benzoyl hexyl benzoate, checked after one week
Source text: Evaluation results accompanied by an x in Table 2 indicate that crystal had precipitated at the applicable point in time.

Butylene glycol di (capryl/caprate) [Component 54]
Evaluation results 1 week: X
